The values that follow are results of earlier work, collected in patent US20260306502A1, “MITOCHONDRIAL UNCOUPLERS FOR TREATMENT OF METABOLIC DISEASES AND CANCER” (Mito Biopharma, LLC, priority 2022, published 2026).

SMILES strings stand for the structures.

The conditions of data set [1]: concentration (in cells)/dosage (in vivo); cited from earlier work.
The test system of the next data set is C57Bl6 mice. To be noted: DNP, US EPA; cited from earlier work.
A further data set concerns CD-1 mice. Conditions: DNP, reportedly; cited from earlier work.

For `O=[N+]([O-])c1ccc(O)c([N+](=O)[O-])c1` [DNP, 2,4-dinitrophenol], the “ratio of concentration/dosage between toxicity and efficacy” value in data set [1] was “about 3”. In addition, the LD50/MED ratio in the data set on C57Bl6 mice is listed as 30. Further, the NOAEL/MED ratio entry in the data set on CD-1 mice was “less than 3”.
